By UniProt entry, the sequences of proteins in these tests, tags left out. Residues count along the entry.
UniProt P08709, 61-212 limits assumed: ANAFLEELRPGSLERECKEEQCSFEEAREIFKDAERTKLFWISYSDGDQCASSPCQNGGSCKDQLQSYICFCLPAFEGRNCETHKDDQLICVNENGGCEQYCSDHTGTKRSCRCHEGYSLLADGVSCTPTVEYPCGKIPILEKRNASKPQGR
UniProt P08709, 213-466 limits assumed: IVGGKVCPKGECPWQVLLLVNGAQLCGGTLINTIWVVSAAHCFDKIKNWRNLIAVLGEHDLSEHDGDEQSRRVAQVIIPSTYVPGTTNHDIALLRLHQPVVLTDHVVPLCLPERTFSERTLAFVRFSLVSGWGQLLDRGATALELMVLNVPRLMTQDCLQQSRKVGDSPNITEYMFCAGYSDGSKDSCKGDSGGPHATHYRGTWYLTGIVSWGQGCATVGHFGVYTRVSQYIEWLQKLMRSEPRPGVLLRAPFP

According to patent US7001887B2, “Peptide derivatives” (priority 2001, dated 2006):

Target: human factor VIIa (Homo sapiens, UniProt P08709)
Assay: biochemical
Experimental: 1. Assay for FVIIa-inhibiting Activity
A 10 vol % DMSO solution of a test compound (20 μL) was mixed with 40 μL Thromborel®S (50 mg/mL, Dade Behring, GTS-200A), 20 μL Spectrozyme®fVIIa (5 mmol/L, American Diagnostica Inc., #217L), 20 μL Tris buffer (500 mmol/L Tris/HCl, pH 7.5, 1500 mmol/L NaCl, 50 mmol/L CaCl2) and 80 μL distilled water, followed by stirring. […] The initial reaction velocity was set to 100% in the case of adding 10 vol % DMSO alone, instead of a test compound. […] This concentration was defined as an IC50 value.

CCS(=O)(=O)N[C@H](Cc1ccc(-c2ccccc2)cc1)C(=O)N[C@@H](CCC(N)=O)C(=O)NCc1ccc(C(=N)N)cc1 [Example 65]
IC50: 93 nM
